The values that follow are results of earlier work, collected in paper PMC8480965 (The Journal of General Physiology, 2021).

Data set [1] concerns Kv2 channels; A-type Kv4 channels. The settings on record: ref Herrington et al., 2006, Liu and Bean, 2014, Speca et al.; cited from earlier work.
Data set [2] addresses T1, Kv2.1 (Kv2.1-CHO cells) (Rattus norvegicus, UniProt P15387).
T1 sequence (P15387 1-857): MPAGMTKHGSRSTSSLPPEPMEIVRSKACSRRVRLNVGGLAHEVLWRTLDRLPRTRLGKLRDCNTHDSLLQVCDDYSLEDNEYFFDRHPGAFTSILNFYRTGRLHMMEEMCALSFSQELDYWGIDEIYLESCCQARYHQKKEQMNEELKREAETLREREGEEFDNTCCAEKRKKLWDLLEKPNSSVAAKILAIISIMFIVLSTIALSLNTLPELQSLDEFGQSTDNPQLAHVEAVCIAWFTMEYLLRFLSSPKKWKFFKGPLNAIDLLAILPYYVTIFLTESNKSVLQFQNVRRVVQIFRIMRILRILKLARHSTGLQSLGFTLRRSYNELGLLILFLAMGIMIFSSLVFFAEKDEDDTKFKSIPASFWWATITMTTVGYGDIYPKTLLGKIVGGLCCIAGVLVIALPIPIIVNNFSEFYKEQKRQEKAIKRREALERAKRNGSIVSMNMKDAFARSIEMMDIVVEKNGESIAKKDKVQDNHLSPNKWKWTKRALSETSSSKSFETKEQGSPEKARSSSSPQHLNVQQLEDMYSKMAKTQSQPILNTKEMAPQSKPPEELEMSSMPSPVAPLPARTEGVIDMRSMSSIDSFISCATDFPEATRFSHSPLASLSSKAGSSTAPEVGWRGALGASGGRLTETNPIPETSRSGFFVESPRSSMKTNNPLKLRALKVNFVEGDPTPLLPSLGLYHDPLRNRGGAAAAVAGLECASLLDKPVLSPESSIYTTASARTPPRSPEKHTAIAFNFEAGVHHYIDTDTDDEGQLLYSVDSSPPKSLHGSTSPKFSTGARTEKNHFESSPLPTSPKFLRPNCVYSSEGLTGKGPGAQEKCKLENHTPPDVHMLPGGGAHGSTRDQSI
To be noted: 100 nM GxTX; ref Tilley et al., 2019; cited from earlier work.

For “guangxitoxin-1E (EGECGGFWWKCGSGKPACCPKYVCSPKWGLCNFPMP; UniProt P84835 1-36, looked up) [GxTX]”, the “selectivity for Kv2 channels” value in data set [1] was “selective for Kv2 channels, with some off-target modulation of A-type Kv4 channels”. The Vmid entry in data set [2] is listed as “+67 ± 6 mV”.
